## AlphaSeq binding of Ab-91 heavy chain variants to a spike HR2 peptide

Antigen: PDVDLGDISGINAS, a 14-residue peptide of the SARS-CoV-2 spike HR2 region.

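The parent was found by panning a naive human phage display library on the peptide. In library AAYL51, one, two or three CDR residues were substituted; doubles and triples were drawn at random. The scFvs were displayed on barcoded MATa yeast, the peptide on MATalpha yeast. Binding brings cells together so that they mate, and sequencing counts the barcode pairs among the diploids. Read counts were normalised to the haploid input and turned into Kd by a linear fit to BCL2-family pairs of known affinity, for each replicate. Each pool was mated in three replicate cultures.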

The variants keep the light chain, the linker and the frameworks of Ab-91 (scFv order VL, a (GGGGS)3 linker, VH).
VL: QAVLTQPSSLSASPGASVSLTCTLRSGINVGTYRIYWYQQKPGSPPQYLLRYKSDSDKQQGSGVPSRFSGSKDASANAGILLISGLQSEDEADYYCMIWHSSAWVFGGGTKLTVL
VH: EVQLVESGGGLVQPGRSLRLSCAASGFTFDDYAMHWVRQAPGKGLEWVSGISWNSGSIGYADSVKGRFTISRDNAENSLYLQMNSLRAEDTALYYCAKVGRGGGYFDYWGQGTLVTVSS

Substitutions are numbered in sequence along the VH above, starting at 1 (not Kabat).
This list gathers variants with a substitution at F29 (VH, numbered from residue 1).
Values are apparent Kd, the geometric mean of the replicates that gave a signal; lower means stronger binding.
An entry "nd" has no value in the source: the pair was not observed among the diploids in any replicate. This suggests poor binding but is not conclusive.
In this assay the parent's reference entry averaged 72 nM; its copy inside this library read 7.5 nM.
As a blank, each scFv also met three strains without target: over library AAYL51, 21% of these pairings were detected, typically at 34 µM and seldom below 1.8 µM.

With F29Y the result was 1.3 µM (3 of 3 replicates).
With F29I/G56C the result was 8.0 µM (3 of 3 replicates).
With F29Y/D62S the result was 270 nM (1 of 3 replicates).
With T28V/F29I/D62E the result was 86 nM (3 of 3 replicates).
With F29S/G50Y the result was 950 µM (1 of 3 replicates).
With F29E/D31A/G100F the result was nd (0 of 3 replicates).
With F29V/W53I/G102C the result was 48 µM (2 of 3 replicates).
With F29Q/I58V/K65I the result was nd (0 of 3 replicates).
With F29W/S55D/D107N the result was nd (0 of 3 replicates).
With F29W/S52C/K65E the result was 350 µM (1 of 3 replicates).
With F29K/G50A/V64K the result was 1.1 mM (1 of 3 replicates).
With F29H/W53K/F106D the result was nd (0 of 3 replicates).
With F29N/H35M the result was 29 µM (1 of 3 replicates).
With F29K/K65R/G100Y the result was 4.2 µM (1 of 3 replicates).
With F27G/F29R/Y105P the result was 13 µM (2 of 3 replicates).
With F29L/G50T/W53E the result was 20 µM (1 of 3 replicates).
With F29N/Y32W/G56R the result was 7.1 µM (2 of 3 replicates).
With F29W/G50Y/Y108R the result was nd (0 of 3 replicates).
With F29E/A61E the result was nd (0 of 3 replicates).
With F29N/W53N/S55Q the result was nd (0 of 3 replicates).
With F29Y/G100R/F106G the result was 21 µM (1 of 3 replicates).
With F29E/A33N/G50W the result was nd (0 of 3 replicates).
With F29K/W53C/A61K the result was 600 nM (3 of 3 replicates).
With F29K/S55D/Y108C the result was 120 µM (3 of 3 replicates).
With F29E/S55Q the result was nd (0 of 3 replicates).
With F27L/F29W/D62A the result was nd (0 of 3 replicates).
With F27R/F29L/I58M the result was nd (0 of 3 replicates).
With F29K/Y32F/S55K the result was 3.9 µM (1 of 3 replicates).
With F29I/I58G/G104P the result was 96 µM (1 of 3 replicates).
With F29T/D31H/W53H the result was 79 nM (3 of 3 replicates).
With F29C/G56A/D107Q the result was nd (0 of 3 replicates).

The first 3 variants above that were never detected:

changes	Kd (apparent)	replicates with signal
F29E/D31A/G100F	nd	0/3
F29Q/I58V/K65I	nd	0/3
F29W/S55D/D107N	nd	0/3

Source: Engelhart et al. 2022 (doi:10.1038/s41597-022-01779-4), MIT Lincoln Laboratory and A-Alpha Bio; data file from the FLAb repository.